Our source for the IC50 values is PubChem BioAssay AID549 (SRMLSC, 2006).

Activity calls are given as the source filed them.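 Rule for the calls: active = clearly stronger inhibition of phosphomevalonate kinase than of the coupling enzymes alone in a parallel counterscreen; inactive = the rest.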

The test concerns the target phosphomevalonate kinase (Streptococcus pneumoniae D39). Put plainly: phosphomevalonate kinase inhibition IC50 – biochemical, mevalonate pathway, coupling enzyme counter-screen, dose response (AID 549). As to conditions: PMK enzyme, PK/LDH coupled NADH absorbance 340 nm. (In general: A counterscreen serves to expose hits that act by an unwanted route or on another target.)

Take `O=P(Nc1nccs1)(c1ccccc1)c1nc2ccccc2s1` (stereo unspecified): the IC50 entry was “inactive”.
